Experimental findings from patent US12274710B2, “Compound for regulating body weight imbalance, composition thereof and application thereof” (GUANGZHOU CENTURY CLINICAL RESEARCH CO., LTD, priority 2019, dated 2025) are described below.

Where two headings read alike, the source gives them in different places.

The data set has as its system persons suffering from weight imbalance. Particulars: A person.

As to dosmalfate [compound 3], the Adverse reactions result (1 g twice a day, two months) was “No adverse reactions” and the Adverse reactions entry (1.5 g three times a day, three months) is recorded as “only mild constipation”.
